The results in this text go back to patent US20140011799A1 (Bristol-Myers Squibb Company, priority 2012, published 2014).

Some results are limits rather than exact numbers.

The target in the assay is T1, Endothelial lipase (EL) (Homo sapiens, UniProt Q9Y5X9).
T1 construct: HT-1080 cells that were transformed using RAGE technology (Athersys) to overexpress endogenous EL; endogenous in cells; conditioned medium used
T1 sequence (Q9Y5X9 21-500): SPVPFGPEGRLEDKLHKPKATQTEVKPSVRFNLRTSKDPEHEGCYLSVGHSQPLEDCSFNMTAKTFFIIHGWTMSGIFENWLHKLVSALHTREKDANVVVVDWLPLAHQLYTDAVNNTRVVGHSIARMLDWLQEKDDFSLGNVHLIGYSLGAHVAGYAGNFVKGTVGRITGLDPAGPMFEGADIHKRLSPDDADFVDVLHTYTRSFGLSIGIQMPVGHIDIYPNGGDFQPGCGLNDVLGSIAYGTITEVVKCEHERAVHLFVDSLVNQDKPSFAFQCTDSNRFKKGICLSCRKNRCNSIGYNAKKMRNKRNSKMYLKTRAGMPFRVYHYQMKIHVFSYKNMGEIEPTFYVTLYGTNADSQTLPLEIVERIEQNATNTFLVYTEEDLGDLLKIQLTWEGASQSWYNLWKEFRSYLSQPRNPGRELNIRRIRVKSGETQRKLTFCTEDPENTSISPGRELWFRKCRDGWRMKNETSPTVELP
The assay is described as follows: Endothelial lipase (EL) enzymatic assay, fluorescent substrate A10070 in DMPG vesicles. The format is biochemical. Conditions: EL from conditioned media of HT-1080 cells; compound preincubated 30 min at 37° C. As to the method:
Endothelial lipase (EL) and hepatic lipase (HL) activities were measured using a fluorescent substrate, A10070, (Invitrogen, CA) doped into an artificial vesicle containing DMPG (Avanti Polar Lipids) as the excipient. Vesicles were prepared by combining 571 μL of 29 mM DMPG in a 1:1 mixture of MeOH and CHCl3 with 2000 μL of 1 mM A10070 in a 1:1 mixture of MeOH and CHCl3. The mixture was dried under nitrogen in multiple vials then resuspended in 20 mL total volume of 50 mM HEPES pH 8.0 buffer containing 50 mM NaCl and 0.2 mM EDTA. The sample was allowed to sit at room temperature for 15 min and then was sonicated 3×4 mins on ice with a Branson Sonicator using duty cycle 1. This preparation provides vesicles with a mole fraction of 0.11 for the FRET substrate.
The enzymatic assay was measured using 384-well white Optiplates. Each well contained 20 μL of assay buffer (50 mM HEPES pH 8.0, 50 mM NaCl and 1 mM CaCl2) and 0.25 μL of a DMSO solution containing a compound of interest. EL or HL (10 μL) was added and allowed to incubate with the compound for 30 min at 37° C. […] The reaction rates were measured on a Gemini plate reader with an excitation wavelength of 490 nm and an emission wavelength of 530 nm. Readings were taken over a period of 60 minutes, and the slope between 300 and 900 secs of the readout was used to calculate the rate of the reaction.

`CC(c1nnc(CNS(N)(=O)=O)o1)(c1nc2ccc(-c3ccccc3)cc2s1)S(=O)(=O)Cc1ccccc1` (single isomer, unassigned) [Reference 2, Isomer B, N-((5-(1-(Benzylsulfonyl)-1-(6-phenyl-1,3-benzothiazol-2-yl)ethyl)-1,3,4-oxadiazol-2-yl)methyl)sulfamide, reference compound] gave a 50% inhibitory concentration (IC50) of 0.713 µM. This counts as sub-micromolar.
Then `CC(c1nnc(CNS(N)(=O)=O)o1)(c1nc2ccc(-c3ccccc3)cc2s1)S(=O)(=O)Cc1ccccc1` (single isomer, unassigned) [Reference 2, Isomer A, N-((5-(1-(Benzylsulfonyl)-1-(6-phenyl-1,3-benzothiazol-2-yl)ethyl)-1,3,4-oxadiazol-2-yl)methyl)sulfamide, reference compound], with more than 25 µM.

The IC50 is the concentration that gives 50% inhibition. A lower IC50 goes with greater potency in that assay.
